Assay results as given in patent US20190071499A1 (published 2019).
Residue numbers refer to the chain shown, from its start. Values belong to the binder of their own block, whether it stands above or below them.

How the values were obtained:
human IFN-α8 [1] = molecular target: T1, human IFN-α8 (human, UniProt P32881 24-189); test: cell-based or functional assay
human IFN-α8 [2] = molecular target: T1, human IFN-α8; test: ELISA or LIPS (Table 7 summary)
human IFN-α8 [3] = molecular target: T1, human IFN-α8; test: ELISA or LIPS (Table 7 summary; ELISA at 1 µg/ml MAB in paragraph 37)

IC 50 (ng/ml), ISRE dual luciferase reporter assay (human IFN-α8 [1]): 4.02 ng/mL
B1: 50E11 (antibody, human IgG1, kappa, V domains shown)
VH: QVQLVQSGAEMKKPGSSVKVSCKDFGGTFSVYGVNWVRQAPGQGLEWMGGLIPVIGPANYAQKFQGRITITADESTSTAYMELSSLRFDDTAIYYCVRDDNEYWGQGTLVTVSS
VL: EMVLTQSPATLSLSPGERATLSCRASQTVSTFLAWYQQKPGQVPRLLVYDISSRANGTPARFSGGGSGTDFTLTISSLELEDFAVYYCQWRSNWPPSLTFGGGTRVEIKR

IC 50 (ng/ml), ISRE dual luciferase reporter assay (human IFN-α8 [1]): 0.86 ng/mL
B2: 12H5 (antibody, human IgG1, kappa, V domains shown)
VH: QVQLIQSGPEVKRPGASVKVSCKASENTFDTHYINWVRQAPGQGLTWLGWLNPTTGKTGFPQKFKGRVILTSDTSLNTAYMEVSRLTSEDTAVYFCARVLKLSDEYNYGFDVWGQGTTVIVSS
VL: DIQVTQSPSSLSASIGDRVTITCRASQNILTFINWYQHKPGKAPKLLIYAASVLQNEVPSRFSGSGSGTDFTLTITSLQPDDFGTYYCQQTYLTPQCSFGQGTKVEIKR

IC 50 (ng/ml), ISRE dual luciferase reporter assay (human IFN-α8 [1]): 571 ng/mL
B3: 8H1 (antibody, human IgG1, kappa, V domains shown)
VH: QVQLVQSGAEVKKPGASVKVSCKASGQTFTSDDINWVRQAPGQGLEWMGWRNPNTQDTGYAQKFHGRLTLTSNSSISTSYLELSGLRSEDTAVYYCARAGTSTLTGHYFALGVWGQGTTVIVSS
VL: DIQLTQSPSSLSASVGDRVTITCQATQDISKYLNWYQQKPGKVPKLLIYETSNLEVGVPSRFSGSGSGTHFTLTISSLQAEDFATYYCQQYENFPFTFGGGTKVEIKR

IC 50 (ng/ml), ISRE dual luciferase reporter assay (human IFN-α8 [1]): 205 ng/mL
B4: 26B9 (antibody, human IgG1, kappa, V domains shown)
VH: QILLQESGPGLVKPTETLSLTCSVSGDSISDSSHYWAWIRQPPGKGPEWIGSVYFSSMTHYNPSLKSRVSISVDKPKNQFSLKVTSVTVADTATYYCARQALARVGAMNWFDPWGQGSLVTVSS
VL: DIIMTQSPDSLPVSLGEGVTINCKSSQSVFFTSSNKSCLAWYQQKPGKSPKLLIYWASTRQSGVPDRFRGSGSGTDFSLTITSLQAEDVAVYFCQQCQTSPPTFGGGTRLEIKR
notes: human-derived IgG1, kappa; also called MAB 26B9; hMAB 26B9

binding result (human IFN-α8 [2]): binds
B5: 31B4 (antibody, human IgG1, kappa, V domains shown)
VH: B4 VH with L3Q, K13R, D31Q, K66T, V73I, P76A, K77M, Q79K
VL: DIIMTQSPESLPVSLGEGVTINCKSSQSVFFTSSNRSCLAWYQQKPGQSPKLLIYWASTRQSGVPDRFTGSGSGTDFSLTIAGLQVEDVAVYFCQQCHASPPTFGGGTRLELRR
notes: human-derived IgG1, kappa; clonally related to 26B9; also called MAB 31B4; hMAB 31B4

binding result (human IFN-α8 [2]): binds
B6: 25C3 (antibody, human IgG1, kappa, V domains shown)
VH: EMQLMESGGGLVQPGGSLRLSCVASGFTFKSFAMSWVRQAPGKGLEWVASVGSQGGSKYYAPSVKGRFSISRDNSNNTLYVQMNSLGVEDTAFYYCVKETDAVATMDALDMWGQGTLVIVST
VL: DIRVTQSPSSLSASVGDRVSISCQTSQSVNIYLNWYQQRPGKGPQLLISAASTLQSGVPSRFSGSGSGTDFILTIISLQPEDSASYYCQQGYITPYTFGQGTKVEIKR
notes: human-derived IgG1, kappa; also called MAB 25C3; hMAB 25C3

binding result (human IFN-α8 [2]): binds
B7: 5D1 (antibody, human IgG1, kappa, V domains shown)
VH: EVQLVQAGAEVKAPGESLRISCKVSGYTFTSYWISWVRQIPGKGLEWMVKIDPRDSYTIYNPSFQGHVSISVDKSITTVYLQWSSLQASDTAIYYCVRHYLTQSLVDYFDHWGQGTLVAVSS
VL: DIQMTQSPSSLSASVGDSVTITCRASQSVSNYFHWYRQKPGKAPELLIYSASNLQTGVPSRFTGSGSGTECTLTITSLQPDDFATYYCQQTHGYPFTFGQGTKLDVRR
notes: human-derived IgG1, kappa; also called MAB 5D1; hMAB 5D1

binding result (human IFN-α8 [3]): no binding
B8: 13B11 (antibody, human IgG1, kappa, V domains shown)
VH: DVQLLQSGGGLIQPGGSLRLSCAASGFTFKDYAMSWVRQAPGKGLEWVSVISRSGNIVDYVDSVKGRFTVSRDNSNNTLFLQMDGLRADDTAIYYCAKPKDMIVVVPAGFDSWGQGTLVSVSS
VL: DIQMTQFPSTLSASVGDSVTITCRASQSISAWLAWYQQKPGKAPKLLIYKGSRLENGVPSRFSGSGSGTEFTLTIGSLQPDDFATYYCQQYKTWTFGQGTKVEIKR
notes: human-derived IgG1, kappa; also called MAB 13B11; hMAB 13B11
